# Values of other authors as cited in patent US8916150B2 (priority 2009, dated 2014).
# Conditions: in vivo
substance,measurement,value
phytate,amount of oral zinc whose absorption may be inhibited,up to 50 mg
